Laboratory results published in ChEMBL document CHEMBL4602729, “O-Alkyl Hydroxamates Display Potent and Selective Antileishmanial Activity” (J Med Chem, 2020).

Amino acid sequences for entries named in this document (tags omitted). A change or cut given only in a name is not applied to a line headed by its entry.
UniProt Q12809: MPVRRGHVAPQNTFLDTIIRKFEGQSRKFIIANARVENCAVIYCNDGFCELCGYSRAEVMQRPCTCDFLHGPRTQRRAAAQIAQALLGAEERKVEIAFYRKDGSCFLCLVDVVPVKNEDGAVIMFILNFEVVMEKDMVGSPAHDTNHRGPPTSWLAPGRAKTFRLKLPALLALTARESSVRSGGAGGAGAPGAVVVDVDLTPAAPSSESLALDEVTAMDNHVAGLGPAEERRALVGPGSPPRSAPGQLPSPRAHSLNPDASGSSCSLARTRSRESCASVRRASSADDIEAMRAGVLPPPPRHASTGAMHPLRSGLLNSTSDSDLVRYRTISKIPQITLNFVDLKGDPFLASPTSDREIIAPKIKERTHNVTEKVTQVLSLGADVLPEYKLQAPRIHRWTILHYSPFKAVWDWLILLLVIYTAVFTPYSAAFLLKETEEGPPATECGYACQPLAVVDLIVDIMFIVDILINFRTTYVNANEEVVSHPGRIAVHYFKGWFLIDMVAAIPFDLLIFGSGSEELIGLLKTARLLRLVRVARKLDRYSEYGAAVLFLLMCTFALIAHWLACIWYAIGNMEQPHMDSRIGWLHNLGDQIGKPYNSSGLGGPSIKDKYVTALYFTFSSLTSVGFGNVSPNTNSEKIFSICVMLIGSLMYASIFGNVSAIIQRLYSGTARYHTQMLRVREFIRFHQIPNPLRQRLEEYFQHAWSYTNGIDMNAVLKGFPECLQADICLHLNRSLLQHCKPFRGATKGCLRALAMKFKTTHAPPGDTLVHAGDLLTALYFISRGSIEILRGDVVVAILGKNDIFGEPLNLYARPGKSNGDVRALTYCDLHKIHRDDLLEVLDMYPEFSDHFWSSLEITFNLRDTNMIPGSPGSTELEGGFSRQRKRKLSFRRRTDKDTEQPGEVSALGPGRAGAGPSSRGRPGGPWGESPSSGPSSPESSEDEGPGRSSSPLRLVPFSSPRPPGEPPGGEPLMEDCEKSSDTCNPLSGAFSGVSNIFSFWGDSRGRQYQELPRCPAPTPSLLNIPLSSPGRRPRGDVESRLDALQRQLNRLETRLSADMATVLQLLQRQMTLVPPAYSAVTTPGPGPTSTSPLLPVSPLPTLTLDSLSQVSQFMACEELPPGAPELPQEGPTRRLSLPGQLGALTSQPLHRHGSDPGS

Target: Voltage-gated inwardly rectifying potassium channel KCNH2 (Homo sapiens, UniProt Q12809)

`CC(C)COCC(CN(Cc1ccccc1)c1ccccc1)N1CCCC1` (stereo unspecified) [BEPRIDIL] showed an IC50 of 1400 nM.
